Assays:
Leishmania donovani [1] = details: THP-1, 10 to 210 uM
Leishmania donovani [2] = assay: Antileishmanial activity against Leishmania donovani AG83 promastigotes assessed as parasite growth inhibition incubated for 92 hrs by MTT assay; assay type: functional, organism-based

**Q.** Which inhibition (Leishmania donovani [1]) does the source give for `COc1cc(O)c2c(=O)c(OC)c(-c3cc(O)c(O)c(OC)c3)oc2c1` here?
**A.** Dose-dependent effect

**Q.** What about the inhibition (Leishmania donovani [2]) of the same compound?
**A.** Dose-dependent effect

Reference: ChEMBL document CHEMBL3351478, “New flavonol methyl ether from the leaves of Vitex peduncularis exhibits potential inhibitory activity against Leishmania donovani through activation of iNOS expression” (Eur J Med Chem, 2014)
